How the values were obtained:
Daudi tumor = test: Anti-tumor activity of cultured anti-BCMA CAR T cells in aggressive Daudi tumor model; assay type: in vivo
Description: A more aggressive and difficult to treat tumor model was used to ascertain the anti-tumor activity of CAR T cells treated with IL-2, MK-2206, TCN, ZSTK474, IL7/15, or vehicle. Daudi tumor cells express a low level of BCMA protein and can be effectively treated using anti-BCMA CAR T cells. Daudi tumor progression was not affected after treatment with IL-2- or IL7/15-cultured anti-BCMA CAR T cells.

[1] = tested on: multiple myeloma tumors (RPMI-8226); test: Anti-tumor activity of cultured anti-BCMA CAR T cells in sub cutaneous multiple myeloma tumor model; assay type: in vivo, mice; conditions: 100 mm^3 sub cutaneous RPMI-8226 tumors; 1×10^6 CAR-positive cells infused
Description: Anti-BCMA CAR T cells treated with MK-2206, TCN, or ZSTK474 as described in Example 3 were tested to evaluate whether increased CD62L expression was associated with increased anti-tumor activity. T cells expressing anti-BCMA CARs were generated after culture with IL-2 and either MK2206, TCN, or ZSTK474. […] Animals with 100 mm^3 sub cutaneous multiple myeloma tumors (RPMI-8226) were infused with equivalent CAR T cell doses (1×10^6 CAR-positive cells).

RPMI-8226 = test: Persistence of anti-BCMA CAR T cells: RPMI-8226 tumor rechallenge; assay type: in vivo, mice; conditions: rechallenged 13 days later with RPMI-8226 on the opposite flank after complete regression
Description: Persistence of anti-BCMA CAR T cells was evaluated by re-challenging tumors in mice that had complete regression. Animals treated with IL-2-, MK-2206-, or ZSTK474-cultured anti-BCMA CAR T cells that had completely regressed 100 mm^3 RPMI-8226 tumors were rechallenged 13 days later with RPMI-8226 on the opposite flank.

## IL-2: interleukin-2 (CellGenix), standard cytokine in the T cell culture media
Daudi tumor
  anti-tumor activity (Daudi tumor progression) of anti-BCMA CAR T cells cultured with the agent: not affected
[1]
  anti-tumor activity of anti-BCMA CAR T cells cultured with the agent: complete tumor regression
RPMI-8226
  tumor outgrowth / engraftment after rechallenge in animals treated with anti-BCMA CAR T cells cultured with the agent: unable to prevent tumor outgrowth
